In the test the target is Cys-Aktide (Biotin-ZZRPRTSCF). In words: cross-linking + pull-down.

Turning to “c-Src tyrosine kinase (recombinant) (from UniProt P00523 1-533) (enzyme)”, the percent of total c-Src recovered by precipitation was 0.5%.

The values are drawn from paper PMC4627693.
